Molecular target: CD46 (UniProt P15529)
Assay: SPR; affinity and interaction half-life told as data not shown; CD46 immobilised, hexon as analyte

The chains behind the UniProt entries cited, without tags or fusion partners. Residues count along the entry.
UniProt P15529, 35-392: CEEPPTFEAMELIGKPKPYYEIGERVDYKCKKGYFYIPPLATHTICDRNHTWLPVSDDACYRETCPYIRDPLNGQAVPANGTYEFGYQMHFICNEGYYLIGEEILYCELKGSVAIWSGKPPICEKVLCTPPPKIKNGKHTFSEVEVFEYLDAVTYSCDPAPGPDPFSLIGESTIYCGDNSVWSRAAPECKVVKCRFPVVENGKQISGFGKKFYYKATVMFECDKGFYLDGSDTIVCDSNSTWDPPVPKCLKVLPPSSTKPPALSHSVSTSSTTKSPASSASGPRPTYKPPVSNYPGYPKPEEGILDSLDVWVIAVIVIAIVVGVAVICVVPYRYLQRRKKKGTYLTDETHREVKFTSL

## hexon protein of HAdV-20-42-42 (natural protein)
  interaction half-life: 3.12 min

Reference: publication PMC8549523
